A short description of this data set: Inhibition of ABCB1 in multidrug-resistant human SW620/Ad300 cells assessed as increase in reversal of resistance to paclitaxel-induced cytotoxicity by measuring paclitaxel IC50 pre-incubated for 4 hrs followed by paclitaxel addition and measured after 72 hrs by MTT assay (Rvb = 4.23 +/- 0.6 uM).

For `Cc1cc(Nc2ccc(Cl)cc2)n2nc(SCc3nc4ccccc4[nH]3)nc2n1`, the IC50 came to 270 nM.
Next, `Cc1cc(Nc2ccc(F)cc2)n2nc(SCc3ccccc3)nc2n1`: 1040 nM.

These data come from BindingDB's records for doi:10.1021/acs.jmedchem.0c01741 (Zhengzhou University, 2020).
